Yeast mating assay B: variants of the scFv Ab-14

From the AlphaSeq antibody data of Li et al. 2023 (doi:10.1038/s41467-023-39022-2), copy in the FLAb collection.

Target peptide (SARS-CoV-2 spike, HR2 region): PDVDLGDISGINAS

Parent: Ab-14, a human scFv built as VH, a (GGGGS)3 linker, VL. Only the CDRs of the light chain vary.
VH: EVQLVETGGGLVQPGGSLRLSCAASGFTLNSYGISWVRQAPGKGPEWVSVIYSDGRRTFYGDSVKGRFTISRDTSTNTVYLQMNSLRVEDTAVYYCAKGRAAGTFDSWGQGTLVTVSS
VL: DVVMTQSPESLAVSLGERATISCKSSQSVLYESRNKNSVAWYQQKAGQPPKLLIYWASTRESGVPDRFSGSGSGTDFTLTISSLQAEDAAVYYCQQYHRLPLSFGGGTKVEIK

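The parent was found by panning a naive human phage display library on the peptide. Designed CDR sequences, proposed from the first random library and measured here. Their group label is 14L_GP_HC (GP: Gaussian process model; HC: hill climbing; a sequence that several methods proposed may carry one label only). The assay is AlphaSeq: two haploid yeast populations carry antibody and antigen on their surface. After mating in shaken culture at 30 °C for 16 h, diploids were selected and their barcode pairs sequenced. Each replicate has its own calibration line, from reference interactions of the BCL2 family. Mating was done six times.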

Variants are written as CDR1, CDR2 and CDR3 of the light chain (limits as in the source). Parent: KSSQSVLYESRNKNSVA, WASTRES, QQYHRLPLS. The read-out is the apparent dissociation constant on a log10 scale (nM): the lower, the stronger. A mean of the replicates is given; it leaves out those without a signal. "ND" marks a missing value. The strain was present, yet no cells mated with the target were sequenced in that replicate, which points to weak or no binding. Nonspecific signal, from three strains lacking the peptide, appeared in 4% of pairings of all light chain designs, centred on 2.64 (5% of these signals below 1.59); values are not corrected for it. For each scFv, signals with the empty controls are counted beside the result, with their mean in brackets.

CDR-L1	CDR-L2	CDR-L3	log10 Kd (nM) by replicate	log10 Kd (nM), mean	empty controls
IVSQSVLMESRNKNSVA	DASTRES	QQYHRLPLS	0.04 0.16 -0.03 0.03 -0.26 0.06	0.00	1/18 (2.71)
KAYQSWLYESRNKNSVA	GASTRES	QQYHRLPLI	0.17 0.54 0.17 1.08 0.28 0.81	0.51	0/18
KSSISYLVESRNKNSVA	EASTRES	QQYHRLPLS	0.52 0.18 0.16 0.35 -0.05 0.39	0.26	0/18
KSSQSWGYESRNKNSVA	GASTRES	QQYHRLPLS	-0.38 -0.54 -0.44 -0.50 -0.48 -0.29	-0.44	2/18 (2.29)
KSSPSVLYESHNKNSVA	EASTRMS	QQYHRLPLS	0.21 0.30 0.27 1.09 0.42 0.66	0.49	0/18
KSSQSVLGQSRNKNSVA	DASTRES	QQYHRLPLS	0.56 -0.44 -0.23 0.15 0.80 0.16	0.17	0/18
KQSQAVLYESRNKNSVA	DANTRES	QQYHRLPLS	0.11 -0.04 0.07 0.28 0.05 0.27	0.12	2/18 (3.48)
KSLQSVLYESRNKNSVA	EASTRED	QQYGRLPLS	0.11 0.07 -0.02 0.00 0.15 0.19	0.08	6/18 (2.78)
IAMQSWLYESRNKNSVA	GASTRES	QQYHRLPLI	0.93 0.25 0.52 1.24 0.90 0.61	0.74	0/18
KSGQGELYESRNKNSVA	GASTRES	QQYHRLPLH	0.31 0.08 0.10 -0.07 0.11 0.19	0.12	1/18 (1.64)
KLSQAFLYESRNKNSVA	DANTRES	QQYHRLPLS	-0.09 -0.15 -0.11 -0.30 -0.12 0.00	-0.13	1/18 (2.04)
KLEQSINYESRNKNSVA	NASTRES	QIYHRLPLS	1.18 0.85 0.73 1.07 0.80 1.24	0.98	0/18
KSSDGVLYESRNKNSVA	GASTRES	QQYHRLPLS	0.26 0.01 0.01 0.02 -0.01 0.29	0.10	2/18 (2.93)
KSSQSDLYESRNKNSVA	GASTRES	QEYHRLPLS	0.41 0.53 0.29 0.61 0.25 0.50	0.43	0/18
KLRQSTLYESRNWNSVA	NASTRES	QQYHRLPLS	0.23 0.61 0.22 0.52 0.05 0.68	0.38	1/18 (2.30)
KCSQSVDFESRNKNSVA	DASTRES	QQYHRLPLS	-0.17 -0.17 -0.26 -0.53 -0.45 0.01	-0.26	0/18
KLCQSVLYESRNKNSVA	HASTRED	QQYHRLPLS	0.19 0.10 -0.09 -0.25 -0.10 0.16	0.00	0/18
KSSISYLLESRNKNSVA	EASTRES	QQYHRLPLS	0.17 0.31 -0.20 -0.16 -0.29 0.23	0.01	0/18
KSYQSFLYESRNKNSVA	EASTRES	QQYHRLPLS	0.32 0.14 0.22 0.15 0.15 0.57	0.26	2/18 (2.00)
KSSMSYLYESENKNSVA	QASQRES	QQYHRLPLS	1.14 0.76 0.41 1.03 0.93 1.15	0.91	0/18
KSQQSVLYESRDKNSVA	HASTRED	QQYHRLPLS	0.91 0.91 0.77 0.30 0.82 0.68	0.73	0/18
KVEQGVLYESRNKNSVA	GASVRES	QQYHRLPLS	-0.22 -0.35 -0.40 -0.35 -0.31 -0.26	-0.31	4/18 (2.15)
KQSQSELFESRNKNSVA	DASTRES	QQYHRLPLS	0.09 -0.11 -0.25 -0.18 -0.23 -0.02	-0.12	1/18 (4.06)
KFSPSVLYESRMKNSVA	NASTRES	QQYHRLPLS	0.01 -0.01 0.03 -0.34 -0.12 0.09	-0.06	1/18 (3.04)
KTPQGVLYESRMKNSVA	GASVRES	QQYHRLPLS	0.24 0.21 -0.17 -0.12 0.06 0.38	0.10	0/18
KSSQSWLYEDRVKNSVA	GASQRES	QQYHRLPLS	0.45 0.25 0.04 0.02 0.35 0.34	0.24	1/18 (2.70)
KSSEVYLYESRNKNSVA	GASTRES	QQYHRLPLS	-0.59 -0.33 0.01 -0.26 -0.71 -0.33	-0.37	0/18
KLLQSVLYESRNKNSVA	EASTRED	QQYHRLPLS	-0.07 -0.02 -0.13 -0.05 -0.11 -0.07	-0.08	0/18
KLVNSTLYESRQKNSVA	NASTRES	QQYHRLPLS	-0.24 1.00 -0.38 -0.41 -0.57 ND	-0.12	0/18
HSSPSVPYESRNKNSVA	EASTREE	QDYHRLPLS	0.20 0.41 0.30 -0.38 -0.28 -0.02	0.04	0/18
KYQPSYLYESRNKNSVA	QASTRES	QQYHRLPLS	0.08 -0.10 -0.27 -0.30 -0.02 -0.06	-0.11	1/18 (3.34)
KQSQSVLYEWRNKNSVA	DGSTRES	QQYHRLPLS	-0.11 -0.22 -0.17 -0.36 -0.37 -0.16	-0.23	0/18
KQSQSVLYQSVNKNSVA	DASTRCS	QQYHRLPLS	-0.01 -0.19 -0.24 -0.44 -0.28 0.02	-0.19	0/18

Top 5 of the variants detected in all replicates, tightest first:

CDR-L1,CDR-L2,CDR-L3,log10 Kd (nM) by replicate,"log10 Kd (nM), mean",empty controls
KSSQSWGYESRNKNSVA,GASTRES,QQYHRLPLS,-0.38 -0.54 -0.44 -0.50 -0.48 -0.29,-0.44,2/18 (2.29)
KSSEVYLYESRNKNSVA,GASTRES,QQYHRLPLS,-0.59 -0.33 0.01 -0.26 -0.71 -0.33,-0.37,0/18
KVEQGVLYESRNKNSVA,GASVRES,QQYHRLPLS,-0.22 -0.35 -0.40 -0.35 -0.31 -0.26,-0.31,4/18 (2.15)
KCSQSVDFESRNKNSVA,DASTRES,QQYHRLPLS,-0.17 -0.17 -0.26 -0.53 -0.45 0.01,-0.26,0/18
KQSQSVLYEWRNKNSVA,DGSTRES,QQYHRLPLS,-0.11 -0.22 -0.17 -0.36 -0.37 -0.16,-0.23,0/18

The authors averaged sequences with at least three values out of six and counted those with two or fewer as poor binders. The range of this assay differs from that of the first round, and the authors advise against merging the two. Of ten entries with the parent sequence, four were seen in most replicates (averages 0.34 to 2.37), three in one and three in none, so single entries are noisy.